Source: patent US11872215B2, “Site-specific antibody-drug glyconjugates and methods” (UNIVERSITY OF GEORGIA RESEARCH FOUNDATION, INC., priority 2014, dated 2024)

Tested on: Daudi Burkett lymphoma cells, which express CD22
Assay: Cytotoxicity assay in Daudi cells (MTT)
Format: cell-based, Human
Settings: varying concentrations, 48 h
Description: Next, the cytotoxic properties of the control and anti-CD22 antibodies were examined. The cell surface receptor CD22 is a clinically validated target for B-cell lymphoma that undergoes constitutive endocytosis, and therefore we thought it would be a suitable target for the development of ADCs. Thus, Daudi Burkett lymphoma cells, which express CD22, were incubated with varying concentrations of the anti-CD22 and control antibody with or without Dox modification. After 48 h, cell viability was measured by the activity of the enzymes that reduce tetrazole (MTT) to formazan.
Human B lymphoblast cell, Daudi (CCL-213, ATCC) were cultured in ATCC-formulated RPMI-1640 medium with L-glutamine (2 mM), sodium bicarbonate (1.5 g L^−1), glucose (4.5 g L^−1), HEPES (10 mM) and sodium pyruvate (1.0 mM). […]
Cytotoxicity of CD22-DOX treatments in Daudi cells was determined by use of the mTT uptake assay. […] The viability was measured by quantifying the cellular ability to reduce the water soluble tetrazolium dye 3-4,5-dimethylthiazole-2,5-diphenyl tetrazolium bromide (MTT) to its insoluble formazan salt as follows. […] The absorbance was measured at 560 nm using a microplate reader (BMG Labtech). Data points were collected in triplicate and expressed as normalized values for untreated control cells (100%).

## DIBO-Doxorubicin conjugate [compound 4]
  cytotoxicity (cell viability by MTT reduction): only slightly less active than the unmodified drug
